Assay [1] is filed under the species Homo sapiens. In words: Selectivity ratio of IC50 for FLT-3 (unknown origin) to IC50 for c-Met (unknown origin).
The species entered for assay [2] is Homo sapiens. In words: Selectivity ratio of IC50 for EGFR (unknown origin) to IC50 for c-Met (unknown origin).
The species named for assay [3] is Homo sapiens. In words: Selectivity ratio of IC50 for c-Kit (unknown origin) to IC50 for c-Met (unknown origin).
The species named for assay [4] is Homo sapiens. In words: Selectivity ratio of IC50 for VEGFR-2 (unknown origin) to IC50 for c-Met (unknown origin).
Assay [5] is filed under the species Homo sapiens. The experiment in a line: Selectivity ratio of IC50 for Ron (unknown origin) to IC50 for c-Met (unknown origin).

`COc1cc2c(Oc3ccc(NC(=O)c4[nH]c(=O)n(-c5ccccc5Cl)c4C)cc3F)ccnc2cc1OCCCN1CCN(C)CC1`: the Ratio IC50 in the assay listed under Homo sapiens [1] is 94; in the assay listed under Homo sapiens [2], more than 10000; in the assay filed under Homo sapiens [3], 27; in the assay filed under Homo sapiens [4], 65; in the assay listed under Homo sapiens [5], 190.
